The text below walks through data of EP0759299B1, “Potentiation of serotonin response” (ELI LILLY AND COMPANY, priority 1995, dated 1997).

The assay concerns NE. In words: Microdialysis assay of monoamines in hypothalamus of conscious rats: NE. Type of assay: in vivo, Sprague-Dawley rats. The settings on record: Test 2, 180 min; percent of baseline; pindolol s.c. infusion 50 mg/kg/hr from 120 min; single animal. Here is the method:
Sprague-Dawley rats (Harlan or Charles River) weighing 270-300 grams were surgically implanted with microdialysis probes under chloral hydrate/pentobarbital anesthesia (170 and 36 mg/kg i.p. in 30% propylene glycol, 14% ethanol) (Perry and Fuller, Effect of fluoxetine on serotonin and dopamine concentration in rat hypothalamus after administration of fluoxetine plus L-5-hydroxytryptophan, Life Sci., 50, 1683-90 (1992)). A David Kopf stereotaxic instrument was used to implant the probe unilaterally in the hypothalamus at coordinates rostral -1.5 mm, lateral -1.3 mm, and ventral -9.0 mm (Paxinos and Watson, 1986). After a 48 hour recovery period, rats were placed in a large plastic bowl with a mounted liquid swivel system (CMA/120 system for freely moving animals, Bioanalytical Systems, West Lafayette, IN). […]
The method used to measure monoamines was as described by Perry and Fuller (1992). […] The electrochemical detector (EG&G, Model 400) for the amine column was set at a potential of 400 mV and a sensitivity of 0.2 nA/V. The data was collected and analyzed with a Hewlett-Packard HP1000 chromatography system which measured peak heights and calculated sample concentrations. Basal levels were measured for at least 90 minutes prior to drug administration.
Extracellular levels of the amines in microdialysates were calculated by comparing peak heights with those of 50 pmole standards. […]

On to `CC(C)NCC(O)COc1cccc2[nH]ccc12` (racemic) [pindolol, 4-(2-hydroxy-3-isopropylaminopropoxy)-indole], for which the “NE (%)” value was determined as 273.5%.
